1 molecule from patent US20110319427A1, “USE OF 5AHQ AND BORTEZOMIB FOR THE TREATMENT OF HEMATOLOGICAL DISEASES” (priority 2009, published 2011) can be followed below.

For the assay, the system named is THP1/BTZ200.

Like-named read-outs stand apart in the source and are kept apart here.

As to `Nc1ccc(O)c2ncccc12` [5AHQ, 5-amino-8-hydroxyquinoline], the “RF 5AHQ (Resistance Factor)” value (THP1/BTZ200 (+)) was determined as 1.7 and the “RF 5AHQ (Resistance Factor)” value (THP1/BTZ200 (−)) came to 1.7.
